# Measured affinities in a library of Ab-91 heavy chain variants

Values reported by Engelhart et al. 2022, doi:10.1038/s41597-022-01779-4 (FLAb copy).

All variants were tested on one target, the spike HR2 peptide PDVDLGDISGINAS (SARS-CoV-2).

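The starting antibody came from a phage panning campaign against this peptide. Variants in AAYL51 differ from the parent at up to three CDR positions; double and triple changes were sampled at random. The scFvs were displayed on barcoded MATa yeast, the peptide on MATalpha yeast. Binding brings cells together so that they mate, and sequencing counts the barcode pairs among the diploids. A regression on co-assayed BCL2-family reference pairs converts the normalised counts of each replicate to an apparent Kd. There are three technical replicates.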

Each scFv is VL, three GGGGS repeats, VH, as in the parent Ab-91, and differs from it in the CDRs of the heavy chain only.
VL: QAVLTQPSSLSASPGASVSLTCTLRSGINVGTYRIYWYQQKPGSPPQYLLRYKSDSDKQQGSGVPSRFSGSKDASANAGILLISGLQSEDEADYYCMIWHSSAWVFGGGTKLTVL
VH: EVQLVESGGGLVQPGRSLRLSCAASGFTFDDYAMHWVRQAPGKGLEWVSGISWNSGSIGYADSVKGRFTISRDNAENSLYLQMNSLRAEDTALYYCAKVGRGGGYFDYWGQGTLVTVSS

Variants are written as CDR1, CDR2 and CDR3 of the heavy chain (limits as in the source). Parent: GFTFDDYAMH, GISWNSGSIGYADSVK, VGRGGGYFDY. The read-out is the apparent dissociation constant on a log10 scale (nM): the lower, the stronger. "n.d." means that the variant was in the library but no mating with the target was seen in that replicate; the authors take this as a sign of poor binding, and no number exists. For reference, the parent read 1.86 as the reference entry and 0.88 as a member of this library. As a blank, each scFv also met three strains without target: over library AAYL51, 21% of these pairings were detected, typically at 4.54 and seldom below 3.26. For each scFv, signals with the empty controls are counted beside the result, with their mean in brackets.

| # | CDR-H1 | CDR-H2 | CDR-H3 | log10 Kd, replicates | empty controls |
|---|---|---|---|---|---|
| 1 | GQTRDDYAMT | GISWNSGSIGYADSVK | VGRGGGYFDY | n.d. / n.d. / n.d. | 0/9 |
| 2 | GFQFDDYAMH | GISWNSGSIGYHDSVK | VGRGGGTFDY | n.d. / n.d. / n.d. | 1/9 (3.93) |
| 3 | GFTFDDKAMH | GISWNSGSIGYADSVE | VGRGGGYNDY | n.d. / n.d. / n.d. | 2/9 (3.67) |
| 4 | GFTFDDYAMH | GIWKNSGSIGYAPSVK | VGRGGGYFDY | 4.52 / 4.59 / n.d. | 2/9 (4.22) |
| 5 | GFTFDDYAMH | GISWNSGSIGWADSVK | QGRGGGSFDY | n.d. / n.d. / n.d. | 0/9 |
| 6 | GFTFDDYAMM | GISWHSGSIGYADSVK | VGRGGGSFDY | 4.69 / 5.38 / 5.03 | 9/9 (5.04) |
| 7 | GFTFDRAAMH | HISWNSGSIGYADSVK | VGRGGGYFDY | n.d. / n.d. / 4.30 | 0/9 |
| 8 | GCTFDDYAMH | GISWSSGKIGYADSVK | VGRGGGYFDY | n.d. / n.d. / 5.06 | 2/9 (4.97) |
| 9 | GFTFDDYLMH | GIFWNSGSIGYAKSVK | VGRGGGYFDY | n.d. / n.d. / n.d. | 1/9 (3.15) |
| 10 | GFTFDDYAMH | GMSWNAGSIGYADSVK | VGRGGGHFDY | 5.76 / n.d. / n.d. | 3/9 (4.54) |
| 11 | GFTFDDYAMH | GITWNYGSIGYADSVK | YGRGGGYFDY | 5.34 / 4.08 / n.d. | 2/9 (5.15) |
| 12 | GFTFEDYAMH | GISWNSGSIGYADSVS | VGAGGGYFDY | n.d. / n.d. / n.d. | 1/9 (3.59) |
| 13 | GFTFDNYAMH | GISWNSGMIGYWDSVK | VGRGGGYFDY | 4.76 / n.d. / n.d. | 2/9 (4.46) |
| 14 | GFTFNDYAMH | GISWNSGAIYYADSVK | VGRGGGYFDY | n.d. / n.d. / n.d. | 1/9 (2.31) |
| 15 | GFTADDYAMH | GDSWNSGSIGYADSVK | VLRGGGYFDY | 4.75 / n.d. / n.d. | 2/9 (5.28) |
| 16 | GFTFDAYAMH | GISWNSGSIGDAFSVK | VGRGGGYFDY | n.d. / n.d. / n.d. | 0/9 |
| 17 | GFTFDDGAMH | GISWNSGSIGYADSVK | VGRCGGYFDY | n.d. / n.d. / n.d. | 1/9 (3.88) |
| 18 | GFTFDDYAMH | GISWNSGSIGYADSVK | VGRGGGYRDY | 4.54 / 4.77 / 5.35 | 3/9 (5.03) |
| 19 | GFTKDDYAMH | GISWRSGSIGYADSVK | VGRGGGYKDY | n.d. / n.d. / n.d. | 1/9 (3.42) |
| 20 | GDTFDDYAMH | GISWNSGSIGYADAVK | VGRGGGYFRY | 4.33 / n.d. / n.d. | 1/9 (3.80) |
| 21 | GFTFDDYAMH | GISWNSGHIGYADSKK | VGSGGGYFDY | n.d. / n.d. / n.d. | 0/9 |
| 22 | GFTFWDYAMH | GISWNSGSIGQAESVK | VGRGGGYFDY | n.d. / n.d. / n.d. | 3/9 (4.05) |
| 23 | GFTFDDYAMH | RISWNWGSIGYADSVI | VGRGGGYFDY | n.d. / n.d. / n.d. | 0/9 |
| 24 | GFTFDDYAMH | GISWNSGSIGYADSVE | VGNGGGYFDY | n.d. / n.d. / n.d. | 2/9 (4.06) |
| 25 | GFTFDDYAMH | WICWNSGRIGYADSVK | VGRGGGYFDY | n.d. / n.d. / n.d. | 0/9 |
| 26 | GFTFPDYKMH | GISWNSGSIGYAPSVK | VGRGGGYFDY | n.d. / 3.67 / n.d. | 0/9 |
| 27 | GFQSDDYAMH | GISWFSGSIGYADSVK | VGRGGGYFDY | 3.99 / n.d. / n.d. | 1/9 (3.81) |
| 28 | GFGFDDYAMH | MISWNSGAIGYADSVK | VGRGGGYFDY | n.d. / n.d. / n.d. | 0/9 |
| 29 | GFTFDQYAMH | GISWQSGSQGYADSVK | VGRGGGYFDY | 2.01 / 1.79 / 1.47 | 1/9 (3.57) |
| 30 | GFWFDDYAMH | GISWNSGSIGYADSVK | VGRGSGYFDM | n.d. / n.d. / n.d. | 0/9 |
| 31 | GFTFDDKAMH | GISWNVGSVGYADSVK | VGRGGGYFDY | 3.95 / 5.57 / 4.94 | 3/9 (4.96) |
| 32 | GFTFDDYAMH | GVSWNSGSIGYADSKK | NGRGGGYFDY | 4.83 / 5.68 / n.d. | 1/9 (4.76) |
| 33 | GFTFDDDAMH | GISWNSGSIGYADSVK | VTRGGGYEDY | 4.21 / n.d. / 4.03 | 3/9 (4.06) |
| 34 | GFTFDDYAMQ | GISWNSGSIGYADSVK | KGRGGGYEDY | 6.33 / n.d. / 4.19 | 7/9 (4.84) |
| 35 | GFKVDDYAMH | GISWNSGSIGYADSVK | VGRGGGYFDR | 2.79 / 2.53 / 2.67 | 4/9 (4.29) |
| 36 | GPTFDDYAMH | GISWNSGSIGYADSVK | VGRGGGYFDY | 2.01 / 1.95 / 1.86 | 2/9 (3.95) |
| 37 | GFIFDDYAMH | GTSWNSGSIGYADSVK | VGRGGGYFDY | 5.17 / 4.81 / 4.43 | 2/9 (4.24) |
| 38 | GPTFDDEAMH | GISWNSGSIGYACSVK | VGRGGGYFDY | n.d. / n.d. / n.d. | 1/9 (3.55) |
| 39 | GFTFPDYAMH | GISWNGGSIGYADSVK | VGRGGGNFDY | 3.75 / 3.28 / 3.22 | 4/9 (5.05) |
| 40 | GFTFDDYAMP | GISWNSGSIGYADSVK | VGRGGGYVCY | 2.92 / 3.40 / 2.91 | 0/9 |
| 41 | GFTFDDYAMH | GISWNSGSMGYADSVK | DGRGGGDFDY | 1.60 / 1.50 / 1.10 | 5/9 (5.20) |
| 42 | GFTFDDYAMH | GISWNSGSIMYADCVK | VRRGGGYFDY | 3.83 / 4.84 / n.d. | 6/9 (4.83) |
| 43 | GFTFDDYAMH | GISWNSGSIGGIDWVK | VGRGGGYFDY | n.d. / n.d. / n.d. | 0/9 |

Top 3 of the variants detected in all replicates, tightest first:

{"CDR-H1": "GFTFDDYAMH", "CDR-H2": "GISWNSGSMGYADSVK", "CDR-H3": "DGRGGGDFDY", "log10 Kd, replicates": "1.60 / 1.50 / 1.10", "empty controls": "5/9 (5.20)"}
{"CDR-H1": "GFTFDQYAMH", "CDR-H2": "GISWQSGSQGYADSVK", "CDR-H3": "VGRGGGYFDY", "log10 Kd, replicates": "2.01 / 1.79 / 1.47", "empty controls": "1/9 (3.57)"}
{"CDR-H1": "GPTFDDYAMH", "CDR-H2": "GISWNSGSIGYADSVK", "CDR-H3": "VGRGGGYFDY", "log10 Kd, replicates": "2.01 / 1.95 / 1.86", "empty controls": "2/9 (3.95)"}